# Reference: patent US20160169850A1, “SENSOR MOLECULE” (University of Malta, priority 2014, published 2016)
# Assays:
# [1] = 1:1 methanol:water, excess Fe(III), emission at 525 nm
# [2] = not given; remark: listed apart in the source
# [3] = 1:1 methanol:water, excitation 399 nm
# [4] = 1:1 MeOH/H2O with 25 mM methanesulfonic acid
# [5] = MeOH with 25 mM methanesulfonic acid
substance,measurement,setting,value
"N-ferrocenyl-4-methylpiperazine-1,8-naphthalimide [Compound 5]",isosbestic point wavelength,"1:1 (v/v) methanol:water, pH 2-10",399 nm
same,Molar extinction coefficient (ε),1:1 MeOH/H2O,12000 L/mol/cm
same,λmax,1:1 MeOH/H2O,390 nm
same,Molar extinction coefficient (ε),[4],12900 L/mol/cm
same,λmax,[4],386 nm
same,Molar extinction coefficient (ε),[5],13100 L/mol/cm
same,λmax,[5],378 nm
same,Absorbance (maximum wavelength),MeOH:H2O (1:1),399 nm
same,Molar Extinction Coefficient,MeOH:H2O (1:1),12000 L/cm/mol
same,Molar extinction coefficient (ε),"MeOH, 1 × 10^−5 M compound",12700 L/mol/cm
same,λmax,"MeOH, 1 × 10^−5 M compound",399 nm
same,pKa of protonated tertiary amine (proton receptor),[1],6.6
same,"Output emission (ΦF), quantum yield","[2]; Condition A: no inputs, 1:1 methanol:water, 3×10^−6 M",0.0003
same,"Output emission (ΦF), quantum yield","[2]; Condition B: 0.2 mM H^+ only, 1:1 methanol:water",0.0050
same,"Output emission (ΦF), quantum yield","[2]; Condition C: 10 μM Fe(III) only, 1:1 methanol:water",0.0015
same,"Output emission (ΦF), quantum yield, 'on' state","[2]; Condition D: 0.2 mM H^+ and 10 μM Fe(III), 1:1 methanol:water",0.096 and 0.10
same,Quantum Yield (ΦF),[2]; MeOH:H2O (1:1),0.096
same,fluorescence emission maximum (λmax),[3],525 nm

# Several values for one entry are separate records, joined by “and”; a condition that tells them apart may be missing. Equal entries are not always repeated. Where two headings read alike, the source gives them in different places.
